Tested on: colchicine binding site of tubulin
Experiment: EBI labeling assay in MIA PaCa2 cells (Western blot)
Type: cell-based
Details: 2 hours compound, then 2 hours 100 μM EBI, FIG. 2, FIG. 3

With `COc1cc2c(c(OC)c1OC)-c1ccc(OC)c(=O)cc1[C@@H](NC(C)=O)CC2` [colchicine] the “Formation of EBI:β-tubulin adducts” value was “inhibited formation of the EBI:β-tubulin adducts”.

Source: patent publication US20240342138A1, “MICROTUBULE TARGETING AGENTS” (BPGbio, Inc., priority 2023, published 2024)
